Experiments:
Format in all cases: cell-based
[1] = target: T1, total level of KIT in UT7/EPO cells (Homo sapiens, UniProt P10721); experiment: Total KIT level by Western blot in UT7/EPO cells; settings: UT7/EPO with EPO
T1 construct: endogenous in cells; host or cells: UT-7/EPO human erythroleukemic cells
Experimental: FIG. 4: Antibody modulation of KIT levels in a WT context. KIT levels were estimated by FACS (A, B) using non competing 104D2-anti-KIT antibody. (A) UT7/EPO cells were incubated in complete IMDM medium complemented with EPO for 1, 4, or 24 hrs or with scFv-Fc antibodies (10 μg/mL) or CHO-KL diluted 500 times. (B) UT7/EPO cells were incubated in complete IMDM medium complemented with EPO, alone or with CHO-KL or antibodies (5 or 50 μg/mL) or with CHO-KL (diluted 500 times) alone, as indicated. NM: non marked cells. Results expressed in MFI (Mean fluorescence intensity). Total KIT levels were also determined by Western blot (C) using KIT and phospho-KIT specific antibodies as indicated. Cells were incubated for 5 days before analysis, both with 10 μg/mL of antibodies.
First, they analysed short term effect of anti-KIT compared to SCF treatment. […] Cell surface down-regulation remained stable after 24 hrs, both in the presence of antibodies or ligand even though after 2 hours of treatment, KIT surface levels started to increase slightly due, at least partially, to increased synthesis since this increase was inhibited by CHX (not shown). […] Then, they analyzed long term effect of scFv-Fc treatment (FIG. 4B). […] They also measured total level of KIT by Western blot upon antibody short or long treatment of UT7/EPO cells cultivated with EPO.

The chains behind the UniProt entries cited, without tags or fusion partners. Residues count along the entry.
UniProt P10721, 26-976: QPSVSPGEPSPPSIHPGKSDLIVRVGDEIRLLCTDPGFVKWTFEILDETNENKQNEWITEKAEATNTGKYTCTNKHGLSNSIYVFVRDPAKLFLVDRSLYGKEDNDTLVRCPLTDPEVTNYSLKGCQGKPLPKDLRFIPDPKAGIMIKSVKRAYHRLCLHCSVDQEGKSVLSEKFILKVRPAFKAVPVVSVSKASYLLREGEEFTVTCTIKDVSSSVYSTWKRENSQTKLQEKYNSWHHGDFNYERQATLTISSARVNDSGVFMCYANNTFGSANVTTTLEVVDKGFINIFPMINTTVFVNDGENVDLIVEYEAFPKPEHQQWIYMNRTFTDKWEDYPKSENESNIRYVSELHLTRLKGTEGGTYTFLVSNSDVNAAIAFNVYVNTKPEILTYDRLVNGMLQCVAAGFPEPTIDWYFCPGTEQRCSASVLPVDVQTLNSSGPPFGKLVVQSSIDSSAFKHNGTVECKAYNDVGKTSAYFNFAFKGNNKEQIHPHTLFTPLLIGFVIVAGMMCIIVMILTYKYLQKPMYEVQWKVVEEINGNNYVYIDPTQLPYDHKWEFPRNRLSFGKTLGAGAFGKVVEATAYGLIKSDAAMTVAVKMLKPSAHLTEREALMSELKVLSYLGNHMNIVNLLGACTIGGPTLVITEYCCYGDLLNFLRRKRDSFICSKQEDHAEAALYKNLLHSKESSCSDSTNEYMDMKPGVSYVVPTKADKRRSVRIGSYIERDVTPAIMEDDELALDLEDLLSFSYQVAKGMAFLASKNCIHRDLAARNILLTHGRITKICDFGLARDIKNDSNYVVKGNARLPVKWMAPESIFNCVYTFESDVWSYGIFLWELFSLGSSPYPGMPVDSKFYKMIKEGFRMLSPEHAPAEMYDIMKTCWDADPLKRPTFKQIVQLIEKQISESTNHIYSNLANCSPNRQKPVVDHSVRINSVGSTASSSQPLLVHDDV
UniProt P10721, 26-976 V560G: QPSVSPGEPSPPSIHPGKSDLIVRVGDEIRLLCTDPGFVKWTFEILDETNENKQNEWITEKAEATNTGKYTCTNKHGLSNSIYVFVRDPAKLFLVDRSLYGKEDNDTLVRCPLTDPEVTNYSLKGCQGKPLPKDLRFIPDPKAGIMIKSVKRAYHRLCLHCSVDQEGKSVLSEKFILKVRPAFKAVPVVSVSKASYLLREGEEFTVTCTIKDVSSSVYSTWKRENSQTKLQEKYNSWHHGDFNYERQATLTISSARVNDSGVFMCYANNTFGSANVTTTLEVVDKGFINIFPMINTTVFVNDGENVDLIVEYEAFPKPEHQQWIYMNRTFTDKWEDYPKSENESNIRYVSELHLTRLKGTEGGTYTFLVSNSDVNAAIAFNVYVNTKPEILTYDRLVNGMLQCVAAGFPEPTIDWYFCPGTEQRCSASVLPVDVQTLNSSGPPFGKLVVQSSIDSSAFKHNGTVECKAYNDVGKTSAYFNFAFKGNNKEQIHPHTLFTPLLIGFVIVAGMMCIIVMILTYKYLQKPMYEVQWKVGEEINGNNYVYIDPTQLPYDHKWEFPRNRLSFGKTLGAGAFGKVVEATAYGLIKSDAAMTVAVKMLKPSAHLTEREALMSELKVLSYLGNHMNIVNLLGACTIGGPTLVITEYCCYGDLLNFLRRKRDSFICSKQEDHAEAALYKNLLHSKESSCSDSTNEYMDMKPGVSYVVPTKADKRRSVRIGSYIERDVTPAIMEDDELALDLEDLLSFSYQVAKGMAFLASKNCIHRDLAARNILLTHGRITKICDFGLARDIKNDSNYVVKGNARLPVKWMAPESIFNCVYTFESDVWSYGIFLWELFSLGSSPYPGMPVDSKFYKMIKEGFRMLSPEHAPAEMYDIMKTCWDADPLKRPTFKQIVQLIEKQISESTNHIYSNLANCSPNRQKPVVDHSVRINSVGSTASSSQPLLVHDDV

[2] = target: T2, KIT surface level on HMC1.1 cells (Homo sapiens, UniProt P10721, V560G); experiment: Internalization assay: KIT surface level by FACS on HMC1.1 cells
T2 construct: endogenous in cells; host or cells: HMC1.1 mastocytoma cells
Experimental: FIG. 5: Antibody modulation of oncogenic KIT. […] Cell viability is expressed in % compared to non treated cells. […] As indicated and analyzed (B) by FACS using 104D2 anti-KIT antibody or (C) by western blot using anti-KIT and phospho-specific anti-KIT antibodies. (D) Three days treatment with anti-KIT antibodies maintained a low level of KIT on both mastocytoma cell lines. […] Cells were washed at room temperature with PBS, fixed for 15 min. at 4° C. (Cytofix, BD biosciences) and stained with the non-competing anti-human KIT 104D2-conjugated to PE/Cy7 and analyzed by FACS as mentioned above.

[3] = target: T3, KIT surface level on UT-7/EPO cells (wild type KIT) (Homo sapiens, UniProt P10721); experiment: Internalization assay: KIT surface level by FACS with 104D2 on UT-7/EPO cells
T3 construct: endogenous in cells; host or cells: UT-7/EPO human erythroleukemic cells

KIT total levels, short treatment ([1]; after 24 hours): not drastically affected
KIT total levels, long term treatment ([1]; long term (5 days), 10 μg/mL): reduced drastically KIT levels
KIT surface levels on HMC1.1 after 24 hr [2]: almost reached initial level
KIT surface levels after long term treatment ([3]; 5 days, UT7/EPO cells cultivated in EPO): did not modulate KIT levels
KIT surface down-regulation ([3]; after 1 hour, UT-7/EPO in EPO, scFv-Fc 10 μg/mL or CHO-KL diluted 500 times): 70%
Substance: SCF: KIT ligand; recombinant human SCF or CHO-KL supernatant (mouse SCF) used as source
